Read-outs that look alike come from different tables or passages of the source.
What was measured:
Type in all cases: binding
[1] = biological target: PI3K alpha (PI3Ka) (Homo sapiens, UniProt P42336); assay: kinobeads assay, PI3K alpha; conditions: Jurkat cell lysate, read-out: PI3Ka inhibition value (IC50), activity level
[2] = biological target: PI3K beta (PI3 Kb) (Homo sapiens, UniProt P42338); assay: kinobeads assay, PI3K beta; conditions: Jurkat cell lysate
[3] = biological target: PI3K gamma (PI3 Kg) (Homo sapiens, UniProt P48736); assay: kinobeads assay, PI3K gamma; conditions: Jurkat cell lysate
[4] = biological target: PI3K delta (PI3 Kd) (Homo sapiens, UniProt O00329); assay: kinobeads assay, PI3K delta; conditions: Jurkat cell lysate
[5] = read-out: PI3Kb inhibition value (IC50), activity level
[6] = read-out: PI3Kg inhibition value (IC50), activity level
[7] = read-out: PI3Kd inhibition value (IC50), activity level

By UniProt entry, the sequences of proteins in these tests, tags left out. Where a name states a change or a piece, a line headed by the entry shows the natural chain unless it says otherwise.
UniProt P42336, whole entry: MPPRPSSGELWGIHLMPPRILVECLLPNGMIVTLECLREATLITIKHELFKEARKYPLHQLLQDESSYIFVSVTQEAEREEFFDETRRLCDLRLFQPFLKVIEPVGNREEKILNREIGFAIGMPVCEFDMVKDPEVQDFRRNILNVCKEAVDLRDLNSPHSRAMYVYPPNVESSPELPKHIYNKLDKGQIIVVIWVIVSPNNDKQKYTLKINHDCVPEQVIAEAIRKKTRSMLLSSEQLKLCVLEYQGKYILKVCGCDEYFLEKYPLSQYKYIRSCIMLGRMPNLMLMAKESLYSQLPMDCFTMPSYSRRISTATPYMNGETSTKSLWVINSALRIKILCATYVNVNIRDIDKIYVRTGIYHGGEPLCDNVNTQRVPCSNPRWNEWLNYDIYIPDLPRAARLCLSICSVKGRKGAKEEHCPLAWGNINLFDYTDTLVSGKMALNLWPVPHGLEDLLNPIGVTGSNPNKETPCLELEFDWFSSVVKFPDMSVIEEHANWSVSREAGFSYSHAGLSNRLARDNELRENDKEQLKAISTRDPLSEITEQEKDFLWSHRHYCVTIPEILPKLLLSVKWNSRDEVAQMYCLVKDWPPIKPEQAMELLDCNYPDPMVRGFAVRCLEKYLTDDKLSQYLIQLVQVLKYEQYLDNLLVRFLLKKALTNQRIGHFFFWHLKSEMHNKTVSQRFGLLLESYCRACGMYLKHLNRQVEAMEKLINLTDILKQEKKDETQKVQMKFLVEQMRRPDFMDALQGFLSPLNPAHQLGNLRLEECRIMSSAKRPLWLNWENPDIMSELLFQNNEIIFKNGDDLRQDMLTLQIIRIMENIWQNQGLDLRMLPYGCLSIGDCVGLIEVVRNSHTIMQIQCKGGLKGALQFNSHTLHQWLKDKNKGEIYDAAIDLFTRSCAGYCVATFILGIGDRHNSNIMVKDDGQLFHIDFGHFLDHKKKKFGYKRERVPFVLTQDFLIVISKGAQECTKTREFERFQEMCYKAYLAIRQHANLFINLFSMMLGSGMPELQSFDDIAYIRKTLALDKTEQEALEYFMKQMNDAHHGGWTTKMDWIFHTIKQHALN
UniProt P42338: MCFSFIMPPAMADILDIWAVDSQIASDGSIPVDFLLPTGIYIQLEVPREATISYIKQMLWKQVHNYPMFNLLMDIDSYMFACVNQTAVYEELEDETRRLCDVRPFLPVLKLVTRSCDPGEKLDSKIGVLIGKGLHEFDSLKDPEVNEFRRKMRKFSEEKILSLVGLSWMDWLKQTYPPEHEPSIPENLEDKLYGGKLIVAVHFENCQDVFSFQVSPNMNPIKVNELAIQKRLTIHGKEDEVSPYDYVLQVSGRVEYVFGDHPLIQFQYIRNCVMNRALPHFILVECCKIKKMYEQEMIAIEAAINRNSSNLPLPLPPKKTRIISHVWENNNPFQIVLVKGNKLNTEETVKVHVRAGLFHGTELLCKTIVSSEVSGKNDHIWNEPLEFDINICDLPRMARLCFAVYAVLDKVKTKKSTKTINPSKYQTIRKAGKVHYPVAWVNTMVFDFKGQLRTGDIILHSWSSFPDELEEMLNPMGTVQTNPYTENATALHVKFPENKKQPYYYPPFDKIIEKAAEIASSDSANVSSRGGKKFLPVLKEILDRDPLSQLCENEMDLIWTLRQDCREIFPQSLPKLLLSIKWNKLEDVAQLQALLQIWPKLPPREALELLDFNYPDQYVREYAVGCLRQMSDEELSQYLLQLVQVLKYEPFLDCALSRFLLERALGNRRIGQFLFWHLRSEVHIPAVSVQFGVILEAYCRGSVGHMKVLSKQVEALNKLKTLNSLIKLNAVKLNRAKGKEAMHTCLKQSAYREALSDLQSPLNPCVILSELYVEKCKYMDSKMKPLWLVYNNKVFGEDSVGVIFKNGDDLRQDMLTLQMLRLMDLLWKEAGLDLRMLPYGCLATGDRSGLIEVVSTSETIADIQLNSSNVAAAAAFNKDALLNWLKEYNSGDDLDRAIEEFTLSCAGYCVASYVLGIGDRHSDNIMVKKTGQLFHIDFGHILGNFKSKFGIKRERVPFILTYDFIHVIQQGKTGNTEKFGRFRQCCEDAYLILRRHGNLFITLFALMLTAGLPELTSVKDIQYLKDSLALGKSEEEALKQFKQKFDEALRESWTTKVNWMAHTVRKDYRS
UniProt P48736: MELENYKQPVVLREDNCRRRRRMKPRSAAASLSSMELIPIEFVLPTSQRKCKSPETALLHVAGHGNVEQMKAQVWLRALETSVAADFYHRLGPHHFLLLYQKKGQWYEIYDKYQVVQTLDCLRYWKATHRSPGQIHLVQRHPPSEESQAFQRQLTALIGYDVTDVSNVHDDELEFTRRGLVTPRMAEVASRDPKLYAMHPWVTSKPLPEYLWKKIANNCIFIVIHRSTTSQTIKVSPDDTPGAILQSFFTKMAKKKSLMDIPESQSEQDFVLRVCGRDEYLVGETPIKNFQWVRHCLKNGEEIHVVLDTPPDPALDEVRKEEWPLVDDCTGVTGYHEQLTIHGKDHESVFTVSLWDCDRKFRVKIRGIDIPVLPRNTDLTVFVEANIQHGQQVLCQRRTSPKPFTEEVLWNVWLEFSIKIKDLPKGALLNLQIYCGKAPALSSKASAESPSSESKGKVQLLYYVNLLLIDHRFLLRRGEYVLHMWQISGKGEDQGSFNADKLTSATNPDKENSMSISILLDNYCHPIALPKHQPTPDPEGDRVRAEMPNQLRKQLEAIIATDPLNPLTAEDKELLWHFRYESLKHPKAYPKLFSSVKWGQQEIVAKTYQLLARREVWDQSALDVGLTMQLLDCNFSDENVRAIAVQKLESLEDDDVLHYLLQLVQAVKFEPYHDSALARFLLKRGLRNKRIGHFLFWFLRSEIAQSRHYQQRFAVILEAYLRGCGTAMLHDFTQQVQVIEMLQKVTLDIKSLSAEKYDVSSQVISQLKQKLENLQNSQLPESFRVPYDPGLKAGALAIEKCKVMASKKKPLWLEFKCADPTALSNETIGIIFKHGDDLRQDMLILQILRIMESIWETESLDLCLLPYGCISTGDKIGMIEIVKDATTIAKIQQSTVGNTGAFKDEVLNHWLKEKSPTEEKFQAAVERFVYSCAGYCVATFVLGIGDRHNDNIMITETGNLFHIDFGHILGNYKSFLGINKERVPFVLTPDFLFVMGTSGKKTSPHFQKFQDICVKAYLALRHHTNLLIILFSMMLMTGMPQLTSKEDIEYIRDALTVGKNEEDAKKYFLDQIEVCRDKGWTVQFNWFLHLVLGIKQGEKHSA
UniProt O00329: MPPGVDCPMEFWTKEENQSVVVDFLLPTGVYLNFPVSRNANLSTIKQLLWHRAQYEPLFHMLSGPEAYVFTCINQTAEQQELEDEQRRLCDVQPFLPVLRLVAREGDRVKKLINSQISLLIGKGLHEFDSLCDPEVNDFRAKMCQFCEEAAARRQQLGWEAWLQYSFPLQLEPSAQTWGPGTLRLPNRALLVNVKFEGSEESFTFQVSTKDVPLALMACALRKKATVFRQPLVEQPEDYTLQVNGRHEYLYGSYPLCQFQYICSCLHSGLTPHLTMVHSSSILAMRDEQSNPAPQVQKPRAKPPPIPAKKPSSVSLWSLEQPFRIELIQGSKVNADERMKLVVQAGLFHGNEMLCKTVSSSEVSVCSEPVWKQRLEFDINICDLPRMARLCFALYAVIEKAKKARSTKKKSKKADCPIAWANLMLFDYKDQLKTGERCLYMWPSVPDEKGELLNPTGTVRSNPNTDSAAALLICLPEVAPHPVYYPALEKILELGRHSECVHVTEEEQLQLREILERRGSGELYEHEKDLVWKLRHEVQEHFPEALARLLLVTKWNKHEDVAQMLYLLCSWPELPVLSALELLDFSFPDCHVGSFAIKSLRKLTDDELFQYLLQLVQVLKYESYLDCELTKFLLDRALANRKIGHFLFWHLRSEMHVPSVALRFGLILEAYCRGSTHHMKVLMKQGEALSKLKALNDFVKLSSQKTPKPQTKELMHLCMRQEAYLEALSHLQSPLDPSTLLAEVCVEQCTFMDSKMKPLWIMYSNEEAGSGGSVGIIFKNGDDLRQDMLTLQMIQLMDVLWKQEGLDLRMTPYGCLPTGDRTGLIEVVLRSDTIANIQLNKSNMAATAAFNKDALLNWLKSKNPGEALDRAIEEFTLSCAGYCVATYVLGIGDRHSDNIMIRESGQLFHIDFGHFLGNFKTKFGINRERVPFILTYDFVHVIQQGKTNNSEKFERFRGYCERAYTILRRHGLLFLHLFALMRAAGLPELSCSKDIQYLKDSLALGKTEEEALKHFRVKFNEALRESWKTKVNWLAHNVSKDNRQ

IC50 [1] [µM]	IC50 [2, 5] [µM]	IC50 [3, 6] [µM]	IC50 [4, 7] [µM]	IC50 ([2]; read-out: PI3Kb inhibition value (IC50), numeric bound) [µM]	IC50 ([3]; read-out: PI3Kg inhibition value (IC50), numeric bound) [µM]	IC50 ([4]; read-out: PI3Kd inhibition value (IC50), numeric bound) [µM]	SMILES
1 to 10	> 10	> 10	> 10				CCNC(=O)Nc1ccc(-c2nc3c(c(N4CCOC[C@@H]4CC)n2)CS(=O)(=O)C3C)cc1 (stereo partly drawn) [Example 41, 1-ethyl-3-(4-(4-((S)-3-ethylmorpholino)-7-methyl-6,6-dioxido-5,7-dihydrothieno[3,4-d]pyrimidin-2-yl)phenyl)urea]
> 10				> 3	> 3	> 3	C[C@H]1COCCN1c1nc(-c2ccc(NC(=O)NC3CC3)cc2)nc2c1[C@H](C)S(=O)(=O)C2 (single isomer, unassigned) [Example 10]
1 to 10	> 10	> 10	> 10				CCNC(=O)Nc1ccc(-c2nc3c(c(N4CCOC[C@@H]4C)n2)C(C)S(=O)(=O)C3)cc1 (stereo partly drawn) [Example 38, 1-ethyl-3-(4-(5-methyl-4-((S)-3-methylmorpholino)-6,6-dioxido-5,7-dihydrothieno[3,4-d]pyrimidin-2-yl)phenyl)urea]
> 10	> 10	> 10	> 10				CCC1COCCN1c1nc(-c2ccc(NC(=O)NC3CC3)cc2)nc2c1C(C)S(=O)(=O)C2 (stereo not shown) [Example 32, 1-cyclopropyl-3-(4-(4-(3-ethylmorpholino)-5-methyl-6,6-dioxido-5,7-dihydrothieno[3,4-d]pyrimidin-2-yl)phenyl)urea]
> 10	> 10	> 10	> 10				CC1c2c(nc(-c3ccc(NC(=O)NC4CC4)cc3)nc2N2CCOC[C@H]2C)CS1(=O)=O (stereo partly drawn) [Example 48, 1-cyclopropyl-3-(4-(5-methyl-4-((R)-3-methylmorpholino)-6,6-dioxido-5,7-dihydrothieno[3,4-d]pyrimidin-2-yl)phenyl)urea]
> 10	> 10	> 10	> 10				CCNC(=O)Nc1ccc(-c2nc3c(c(N4CCOC[C@@H]4C)n2)C(CC)S(=O)(=O)C3)cc1 (stereo partly drawn) [Example 67, 1-ethyl-3-(4-(5-ethyl-4-((S)-3-methylmorpholino)-6,6-dioxido-5,7-dihydrothieno[3,4-d]pyrimidin-2-yl)phenyl)urea]
1 to 10	> 10	> 10	> 10				CCCNC(=O)Nc1ccc(-c2nc3c(c(N4CCOC[C@@H]4C)n2)C(C)S(=O)(=O)C3)cc1 (stereo partly drawn) [Example 45, 1-(4-(5-methyl-4-((S)-3-methylmorpholino)-6,6-dioxido-5,7-dihydrothieno[3,4-d]pyrimidin-2-yl)phenyl)-3-propylurea]
> 10	> 10	> 10	> 10				CC1Cc2nc(-c3ccc(NC(=O)NC4CC4)cc3)nc(N3CCOC[C@@H]3C)c2C(C)S1(=O)=O (stereo partly drawn) [Example 72, 1-cyclopropyl-3-(4-(5,7-dimethyl-4-((S)-3-methylmorpholino)-6,6-dioxido-7,8-dihydro-5H-thiopyrano[4,3-d]pyrimidin-2-yl)phenyl)urea]
1 to 10	> 10	> 10	> 10				CCNC(=O)Nc1ccc(-c2nc3c(c(N4CCOC[C@@H]4C)n2)[C@@H](C)S(=O)(=O)C3)cc1 [Example 39, 1-ethyl-3-(4-((R)-5-methyl-4-((S)-3-methylmorpholino)-6,6-dioxido-5,7-dihydrothieno[3,4-d]pyrimidin-2-yl)phenyl)urea]
1 to 10	1 to 10	> 10	> 10				CCC1c2c(nc(-c3ccc(NC(=O)NC4CC4)cc3)nc2N2CCOC[C@@H]2C)CS1(=O)=O (stereo partly drawn) [Example 49, 1-cyclopropyl-3-(4-(5-ethyl-4-((S)-3-methylmorpholino)-6,6-dioxido-5,7-dihydrothieno[3,4-d]pyrimidin-2-yl)phenyl)urea]
1 to 10	> 10	> 10	> 10				CNC(=O)Nc1ccc(-c2nc3c(c(N4CCOC[C@@H]4C)n2)CS(=O)(=O)C3)cc1 [Example 12, (S)-1-methyl-3-(4-(4-(3-methylmorpholino)-6,6-dioxido-5,7-dihydrothieno[3,4-d]pyrimidin-2-yl)phenyl)urea]

The remaining lines, values behind:

SMILES	IC50 [1] [µM]	IC50 [2, 5] [µM]	IC50 [3, 6] [µM]	IC50 [4, 7] [µM]	IC50 ([2]; read-out: PI3Kb inhibition value (IC50), numeric bound) [µM]	IC50 ([3]; read-out: PI3Kg inhibition value (IC50), numeric bound) [µM]	IC50 ([4]; read-out: PI3Kd inhibition value (IC50), numeric bound) [µM]
CCNC(=O)Nc1ccc(-c2nc3c(c(N4CC5CCC(C4)O5)n2)CS(=O)(=O)C3)cc1 [Example 15, 1-(4-(4-(8-oxa-3-azabicyclo[3.2.1]octan-3-yl)-6,6-dioxido-5,7-dihydrothieno[3,4-d]pyrimidin-2-yl)phenyl)-3-ethylurea]	> 10	> 10	> 10	> 10			
CNC(=O)Nc1ccc(-c2nc(N3CCOC[C@@H]3C)c3c(n2)C(C)(C)S(=O)(=O)C3)cc1 [Example 57, (S)-1-(4-(7,7-dimethyl-4-(3-methylmorpholino)-6,6-dioxido-5,7-dihydrothieno[3,4-d]pyrimidin-2-yl)phenyl)-3-methylurea]	> 10	> 10	> 10	> 10			
C[C@@H]1COCCN1c1nc(-c2ccc(NC(=O)NC3CC3)cc2)nc2c1CS(=O)(=O)C2 [Example 17, (R)-1-cyclopropyl-3-(4-(4-(3-methylmorpholino)-6,6-dioxido-5,7-dihydrothieno[3,4-d]pyrimidin-2-yl)phenyl)urea]	> 10	> 10	> 10	> 10			
C[C@H]1COCCN1c1nc(-c2ccc(NC(=O)NC3CC3)cc2)nc2c1CSC2 [Example 1, (S)-1-cyclopropyl-3-(4-(4-(3-methylmorpholino)-5,7-dihydrothieno[3,4-d]pyrimidin-2-yl)phenyl)urea]	> 10	> 10	> 10	> 10			
C[C@H]1COCCN1c1nc(-c2ccc(NC(=O)NC3CC3)cc2)nc2c1CS(=O)(=O)C2(C)C [Example 30, (S)-1-cyclopropyl-3-(4-(7,7-dimethyl-4-(3-methylmorpholino)-6,6-dioxido-5,7-dihydrothieno[3,4-d]pyrimidin-2-yl)phenyl)urea]	> 10	> 10	> 10	> 10			
CC1c2c(nc(-c3ccc(NC(=O)NC4CC4)cc3)nc2N2C3CCC2COC3)CS1(=O)=O (stereo not shown) [Example 33, 1-(4-(4-(3-oxa-8-azabicyclo[3.2.1]octan-8-yl)-5-methyl-6,6-dioxido-5,7-dihydrothieno[3,4-d]pyrimidin-2-yl)phenyl)-3-cyclopropylurea]	> 10	> 10	> 10	> 10			
C[C@H]1COCCN1c1nc(-c2ccc(NC(=O)NC3COC3)cc2)nc2c1CS(=O)(=O)C2(C)C [Example 68, (S)-1-(4-(7,7-dimethyl-4-(3-methylmorpholino)-6,6-dioxido-5,7-dihydrothieno[3,4-d]pyrimidin-2-yl)phenyl)-3-(oxetan-3-yl)urea]	> 10	> 10	> 10	> 10			
CNC(=O)Nc1ccc(-c2nc(N3CCOC[C@@H]3C)c3c(n2)C(C)(C)S(=O)(=O)C3)cc1F [Example 65, (S)-1-(4-(7,7-dimethyl-4-(3-methylmorpholino)-6,6-dioxido-5,7-dihydrothieno[3,4-d]pyrimidin-2-yl)-2-fluorophenyl)-3-methylurea]	> 10	> 10	> 10	> 10			
C[C@H]1COCCN1c1nc(-c2ccc(NC(=O)NC3CC3)cc2)nc2c1CS(=O)(=O)C(C)(C)C2 [Example 70, (S)-1-cyclopropyl-3-(4-(7,7-dimethyl-4-(3-methylmorpholino)-6,6-dioxido-7,8-dihydro-5H-thiopyrano[4,3-d]pyrimidin-2-yl)phenyl)urea]	> 10	> 10	> 10	> 10			
C[C@H]1COCCN1c1nc(-c2ccc(NC(=O)NC3CC3)cc2)nc2c1CS(=O)(=O)C2 [Example 2, (S)-1-cyclopropyl-3-(4-(4-(3-methylmorpholino)-6,6-dioxido-5,7-dihydrothieno[3,4-d]pyrimidin-2-yl)phenyl)urea]	> 10	> 10	> 10	> 10			
CC1c2nc(-c3ccc(NC(=O)NC4CC4)cc3)nc(N3CCOC[C@@H]3C)c2C(C)S1(=O)=O (stereo partly drawn) [Example 44, 1-cyclopropyl-3-(4-(5,7-dimethyl-4-((S)-3-methylmorpholino)-6,6-dioxido-5,7-dihydrothieno[3,4-d]pyrimidin-2-yl)phenyl)urea]	1 to 10	> 10	> 10	> 10			
C[C@H]1COCCN1c1nc(-c2ccc(NC(=O)NCCO)cc2)nc2c1CS(=O)(=O)C2 [Example 13, (S)-1-(2-hydroxyethyl)-3-(4-(4-(3-methylmorpholino)-6,6-dioxido-5,7-dihydrothieno[3,4-d]pyrimidin-2-yl)phenyl)urea]	1 to 10	> 10	> 10	> 10			
C[C@H]1COCCN1c1nc(-c2ccc(NC(=O)NC3CC3)cc2)nc2c1CS(=O)(=O)C2(C)F (stereo partly drawn) [Example 43, 1-cyclopropyl-3-(4-(7-fluoro-7-methyl-4-((S)-3-methylmorpholino)-6,6-dioxido-5,7-dihydrothieno[3,4-d]pyrimidin-2-yl)phenyl)urea]	> 10	> 10	> 10	> 10			
O=C(Nc1ccc(-c2nc3c(c(N4CCOCC4)n2)CS(=O)(=O)C3)cc1)NC1CC1 [Example 18, 1-cyclopropyl-3-(4-(4-morpholino-6,6-dioxido-5,7-dihydrothieno[3,4-d]pyrimidin-2-yl)phenyl)urea]	> 10	> 10	> 10	> 10			
